The values below are quoted from earlier work in article PMC2997927 (Molecular pharmaceutics, 2010).

In one data set the test system is p53-MDM2. The settings on record: in the test tube.
The conditions of data set [1]: stated in introduction, reported impermeability.
The subject of another data set is p53-MDM4. The following applies: in the test tube.
The conditions of data set [2]: stated in introduction.

As to “p53_14–29: peptide corresponding to the native sequence of the MDM2-binding region of p53”, the “inhibition of p53-MDM2” value with p53-MDM2 is “μM inhibitor”. For the same substance, in data set [1], the cell permeability entry is “cell impermeable”. Besides, the “inhibition of p53-MDM4” value with p53-MDM4 is recorded as “μM inhibitor”. The enzymatic stability result in data set [2] was “prone to rapid enzymatic degradation”.
